1 substance from patent publication US4299915A (priority 1977, dated 1981) can be followed below.

Data set [1] concerns S. typhimurium strain TM35. The experiment in a line: Forward mutation assay (8-azaguanine resistance) in bacterial cells. The conditions noted are these: 2 hour exposure; relatively low concentrations.
In data set [2] the test system is 8AG^R mutant fraction of S. typhimurium cultures. In words: Phenotypic expression: 8AG^R mutant fraction during grow-back after treatment. The conditions noted are these: hourly samples, incubation in Minimal E post-treatment.

Consider N-methyl-N'-nitro-N-nitrosogunanidine, for which the “induced mutant fractions (M.F.)” value in data set [1] is given as “significantly higher than background levels”. Moreover, the “8AG^R mutant fraction when cultures are allowed to grow before plating” value in data set [2] was “drops significantly and then stabilizes at a constant level”.
